Experimental data from publication PMC8624105 (Viruses, 2021).

Legend:
Assay in all cases: holdup assay
Type in all cases: binding, human
NHERF2 PDZ2 = test system: NHERF2 PDZ2
MAGI2 PDZ6 = settings: PDZ about 4 μM; two independent experiments
PDLIM2 PDZ1 = settings: PDZ about 4 μM; two independent experiments
MAGI3 PDZ4 = settings: PDZ about 4 μM; two independent experiments
SHANK3 = test system: SHANK3
GIPC1 PDZ1 = settings: PDZ about 4 μM; two independent experiments
CNKSR2 PDZ1 = settings: PDZ about 4 μM; two independent experiments
PCLO PDZ1 = settings: PDZ about 4 μM; two independent experiments
PTPN13 PDZ3 = settings: PDZ about 4 μM; two independent experiments
PDZD2 PDZ6 = settings: PDZ about 4 μM; two independent experiments
NHERF3 PDZ2 = settings: PDZ about 4 μM; two independent experiments
LNX2 PDZ1 = settings: PDZ about 4 μM; two independent experiments
MPDZ PDZ1 2 = settings: PDZ about 4 μM; two independent experiments
IL16 PDZ2 = settings: PDZ about 4 μM; two independent experiments
PARD6A PDZ1 = settings: PDZ about 4 μM; two independent experiments
PSCDBP PDZ1 = settings: PDZ about 4 μM; two independent experiments
HTRA4 PDZ1 = settings: PDZ about 4 μM; two independent experiments
SHANK2 = test system: SHANK2
CARD11 PDZ1 = settings: PDZ about 4 μM; two independent experiments
MAST2 = test system: MAST2
GRIP1 PDZ2 = settings: PDZ about 4 μM; two independent experiments
NHERF PDZ2 = settings: PDZ about 4 μM; two independent experiments
ARHGAP23 PDZ1 = settings: PDZ about 4 μM; two independent experiments
PRX PDZ1 = settings: PDZ about 4 μM; two independent experiments
GRIP2 PDZ1 = settings: PDZ about 4 μM; two independent experiments
GRID2IP PDZ1 = settings: PDZ about 4 μM; two independent experiments
IL16 PDZ3 = settings: PDZ about 4 μM; two independent experiments
TJP3 PDZ1 = settings: PDZ about 4 μM; two independent experiments
PREX2 PDZ1 = settings: PDZ about 4 μM; two independent experiments
PDZD7 PDZ3 = settings: PDZ about 4 μM; two independent experiments
DLG4 PDZ1 = settings: PDZ about 4 μM; sd not given
APBA3 PDZ1 = settings: PDZ about 4 μM; two independent experiments
MPDZ PDZ4 = settings: PDZ about 4 μM; two independent experiments
DLG5 PDZ2 = settings: PDZ about 4 μM; two independent experiments
FRMPD2 PDZ1 = settings: PDZ about 4 μM; two independent experiments
PPP1R9A PDZ1 = settings: PDZ about 4 μM; two independent experiments
MAGI2 PDZ2 = settings: PDZ about 4 μM; two independent experiments
SDCBP PDZ2 = settings: PDZ about 4 μM; two independent experiments
PDZD2 PDZ2 = settings: PDZ about 4 μM; two independent experiments
DLG5 PDZ4 = settings: PDZ about 4 μM; two independent experiments
SCRIB PDZ3 = test system: SCRIB PDZ3
DFNB31 PDZ1 = settings: PDZ about 4 μM; two independent experiments
ARHGEF11 PDZ1 = settings: PDZ about 4 μM; two independent experiments
SCRIB PDZ1 = settings: PDZ about 4 μM; sd not given
PTPN13 PDZ2 = settings: PDZ about 4 μM; two independent experiments
MAGI1 PDZ1 = settings: PDZ about 4 μM; two independent experiments
SCRIB PDZ2 = settings: PDZ about 4 μM; two independent experiments
MAST4 PDZ1 = settings: PDZ about 4 μM; two independent experiments
SHROOM4 PDZ1 = settings: PDZ about 4 μM; two independent experiments
[1] = PDZ about 4 μM, two independent experiments
[2] = converted from BI, PDZ typically 4 μM, immobilized peptide 21 μM
[3] = converted from BI, PDZ typically 4 μM, immobilized peptide 21 μM, read-out: Kd estimated
[4] = converted from BI, PDZ typically 4 μM, immobilized peptide 21 μM, listed as PBM peptide from ACE2 protein, read-out: Kd estimated

## Biotin-(PEG3)-GFQNTDDVQTSF [ACE2 PBM peptide]
NHERF2 PDZ2; [1]
  BI (binding intensity): 0.67
NHERF2 PDZ2; [2]
  Kd estimated: micromolar range
NHERF2 PDZ2; [3]
  Kd: 9.3 µM
MAGI2 PDZ6
  BI (binding intensity): 0.02
PDLIM2 PDZ1
  BI (binding intensity): -0.05
MAGI3 PDZ4
  BI (binding intensity): -0.05
SHANK3; [1]
  BI (binding intensity): 0.75
SHANK3; [2]
  Kd estimated: micromolar range
SHANK3; [3]
  Kd: 6.08 µM
GIPC1 PDZ1
  BI (binding intensity): 0.12
CNKSR2 PDZ1
  BI (binding intensity): 0.03
PCLO PDZ1
  BI (binding intensity): -0.05
PTPN13 PDZ3
  BI (binding intensity): -0.02
PDZD2 PDZ6
  BI (binding intensity): -0.03
NHERF3 PDZ2
  BI (binding intensity): 0.05
LNX2 PDZ1
  BI (binding intensity): -0.07
MPDZ PDZ1 2
  BI (binding intensity): -0.05
IL16 PDZ2
  BI (binding intensity): -0.09
PARD6A PDZ1
  BI (binding intensity): -0.08
PSCDBP PDZ1
  BI (binding intensity): 0.01
HTRA4 PDZ1
  BI (binding intensity): -0.05
SHANK2; [1]
  BI (binding intensity): 0.62
SHANK2; [4]
  Kd: 11.5 µM
CARD11 PDZ1
  BI (binding intensity): 0.01
MAST2; [1]
  BI (binding intensity): 0.72
MAST2; [2]
  Kd estimated: micromolar range
MAST2; [3]
  Kd: 6.96 µM
GRIP1 PDZ2
  BI (binding intensity): -0.07
NHERF PDZ2
  BI (binding intensity): 0.11
ARHGAP23 PDZ1
  BI (binding intensity): 0.03
PRX PDZ1
  BI (binding intensity): -0.03
GRIP2 PDZ1
  BI (binding intensity): -0.11
GRID2IP PDZ1
  BI (binding intensity): -0.03
IL16 PDZ3
  BI (binding intensity): -0.04
TJP3 PDZ1
  BI (binding intensity): -0.10
PREX2 PDZ1
  BI (binding intensity): -0.11
PDZD7 PDZ3
  BI (binding intensity): -0.06
DLG4 PDZ1
  BI (binding intensity): -0.50
APBA3 PDZ1
  BI (binding intensity): -0.11
MPDZ PDZ4
  BI (binding intensity): -0.01
DLG5 PDZ2
  BI (binding intensity): -0.03
FRMPD2 PDZ1
  BI (binding intensity): -0.02
PPP1R9A PDZ1
  BI (binding intensity): 0.02
MAGI2 PDZ2
  BI (binding intensity): -0.03
SDCBP PDZ2
  BI (binding intensity): -0.09
PDZD2 PDZ2
  BI (binding intensity): -0.03
DLG5 PDZ4
  BI (binding intensity): -0.01
SCRIB PDZ3; [1]
  BI (binding intensity): 0.23
SCRIB PDZ3; [4]
  Kd: 69.1 µM
DFNB31 PDZ1
  BI (binding intensity): 0.09
ARHGEF11 PDZ1
  BI (binding intensity): -0.18
SCRIB PDZ1
  BI (binding intensity): 0.02
PTPN13 PDZ2
  BI (binding intensity): -0.09
MAGI1 PDZ1
  BI (binding intensity): -0.03
SCRIB PDZ2
  BI (binding intensity): -0.03
MAST4 PDZ1
  BI (binding intensity): 0.00
SHROOM4 PDZ1
  BI (binding intensity): -0.02
